From US8303964B2, “Viable non-toxic gram-negative bacteria” (priority 2006, dated 2012)

What was measured:
BW30270 = experiment: microbe, parasite or virus in culture; assay type: cell-based, E. coli K-12; conditions: Escherichia coli; LB media, 37° C., 18 hours; lowest concentration that completely inhibited growth; read-out: Minimum Inhibitory Concentration BW30270
Experimental: This example describes Minimum Inhibitory Concentration (MIC) Determinations used in experiments conducted during the course of the present invention. The antibiotics used were from Sigma with the exception of cephaloridine, which was obtained from MicroSource Discovery Systems. Antibiotics were chosen based on their varying mode of action and entry into the cell. The MICs of all antibiotics and drugs studied were measured in LB media using the standard serial microdilution method as described (see, e.g., R. Vuorio, M. Vaara, Antimicrob. Agents Chemother. 36, 826 (1992); herein incorporated by reference in its entirety). Colonies from LB agar plate were scraped and suspended in media (˜10^4 cells per mL) with varying concentrations of antibiotics. Cultures were incubated with shaking (˜200 rpm) at 37° C. for 18 hours at which point growth was scored by visual inspection.

KPM22 = assay type: cell-based, E. coli; conditions: MIC BW30270 versus MIC KPM22
Experimental: The antibiotics used were from Sigma with the exception of cephaloridine, which was obtained from MicroSource Discovery Systems. Antibiotics were chosen based on their varying mode of action and entry into the cell. […] Colonies from LB agar plate were scraped and suspended in media (˜10^4 cells per mL) with varying concentrations of antibiotics. Cultures were incubated with shaking (˜200 rpm) at 37° C. for 18 hours at which point growth was scored by visual inspection.

Row | SMILES | MIC (BW30270) [µg/mL] | Fold Difference in MIC (KPM22) [fold]
1 | CC[C@H]1OC(=O)[C@H](C)[C@@H](O[C@H]2C[C@@](C)(OC)[C@@H](O)[C@H](C)O2)[C@H](C)[C@@H](O[C@@H]2O[C@H](C)C[C@H](N(C)C)[C@H]2O)[C@](C)(O)C[C@@H](C)C(=O)[C@H](C)[C@@H](O)[C@]1(C)O [Erythromycin] | 128 (≈ 174 µM) | –
2 | CO[C@@H]1[C@@H](OC(N)=O)[C@@H](O)[C@H](Oc2ccc3c(O)c(NC(=O)c4ccc(O)c(CC=C(C)C)c4)c(=O)oc3c2C)OC1(C)C [Novobiocin] | 256 (≈ 418 µM) | –
3 | CN[C@H](CC(C)C)C(=O)N[C@H]1C(=O)N[C@@H](CC(N)=O)C(=O)N[C@H]2C(=O)N[C@H]3C(=O)N[C@H](C(=O)N[C@H](C(=O)O)c4cc(O)cc(O)c4-c4cc3ccc4O)[C@H](O)c3ccc(c(Cl)c3)Oc3cc2cc(c3O[C@@H]2O[C@H](CO)[C@@H](O)[C@H](O)[C@H]2O[C@H]2C[C@](C)(N)[C@H](O)[C@H](C)O2)Oc2ccc(cc2Cl)[C@H]1O [Vancomycin] | – | 8

≈ marks a conversion by molar mass, not a printed value.
